Patent US11013816B2, “Antibody drug conjugates having derivatives of amatoxin as the drug” (Sorrento Therapeutics, Inc., priority 2016, dated 2021)

Experiments:
Assay type in all cases: in vivo, Nu/Nu mice
H292 xenograft = test: H292 human xenograft tumor growth in nude mice; details: single dose 3 mg/kg i.v.
Procedure: (§1) This example provides the results for the efficacy of ADCs conjugated with small molecule 22, 23, 25, or 27 in a model of H292, HCC827, and H1975 Human Xenograft Tumor Growth in Nude Mice. HCC827, H292, H1975 cell lines were obtained from ATCC. The cells were cultured in RPMI 1640 1X (Corning 10-041-CV) medium with 10% FBS (Seradigm 1500-500) and penicillin streptomycin (Corning 30-002-CI) at 37° C. in a 5% carbon dioxide humidified environment. Cells were cultured for a period of 2 weeks and passaged 4 times before harvest. The cells were harvested with 0.25% trypsin (Corning 25-050-CI). Prior to injection, HCC827 cells were mixed in a 1:1 ratio of HBSS (Hank's balanced salt solution; Ward's 470180-784) and matrigel (Corning 354234) mixture, and 7 million cells per 0.2 ml were injected subcutaneously into the upper right flank of each mouse. H292 cells were resuspended in HBSS, and 5 million cells per 0.2 ml were injected subcutaneously into the upper right flank of each mouse. H1975 cells were resuspended in HBSS, and 3 million cells per 0.2 ml were injected subcutaneously into the upper right flank of each mouse. […]
(§2) Upon receipt, mice were housed 5 mice per cage in a room with a controlled environment. […] The animals' health status was monitored during the acclimation period. […]
(§3) Tumor growth was monitored by measurement of tumor width and length using a digital caliper starting day 5-7 after inoculation, and followed twice per week until tumor volume reached ˜100-250 mm^3. Tumor volume was calculated using the formula: Volume (mm^3)=[Length (mm)×Width (mm)^2]/2. […] Tumor growth was monitored, and each group of mice was sacrificed when the average tumor load for the control group exceeded 2000 mm^3.
(§4) Tumor volume was measured twice weekly throughout the experimental period to determine TGI (tumor growth inhibition %). The body weight of each mouse was measured twice weekly by electric balance. Group average and standard deviation were calculated, and statistical analyses (one-way ANOVA with Dunnett's multiple comparison test; GraphPad Prism 6.0) was carried out. […]

[1] = Body weight and skin observations in the H292 xenograft study; details: single dose 3 mg/kg i.v., FIG. 10
Procedure: (§5) Female Nu/Nu mice aged 5-7 weeks (Charles River) were used throughout these studies.
(§6) Tumor volume was measured twice weekly throughout the experimental period to determine TGI (tumor growth inhibition %). The body weight of each mouse was measured twice weekly by electric balance. Group average and standard deviation were calculated, and statistical analyses (one-way ANOVA with Dunnett's multiple comparison test; GraphPad Prism 6.0) was carried out. All treatment groups were compared with the PBS group. P<0.05 was considered statistically significant.

[2] = Body weight in the HCC827 xenograft studies; details: -23 conjugates, 3 mg/kg, FIG. 13
Procedure: as §5, §6

HCC827 xenograft = test: HCC827 human xenograft tumor growth in nude mice
Procedure: as §1, §2, §3, §4

B1: Nimo-22: Nimo antibody conjugated with 22 (conjugate, chains of the INN, looked up)
heavy: QVQLQQSGAEVKKPGSSVKVSCKASGYTFTNYYIYWVRQAPGQGLEWIGGINPTSGGSNFNEKFKTRVTITADESSTTAYMELSSLRSEDTAFYFCTRQGLWFDSDGRGFDFWGQGTTVTVSSASTKGPSVFPLAPSSKSTSGGTAALGCLVKDYFPEPVTVSWNSGALTSGVHTFPAVLQSSGLYSLSSVVTVPSSSLGTQTYICNVNHKPSNTKVDKKV[left out - human IgG1 Fc]
light: DIQMTQSPSSLSASVGDRVTITCRSSQNIVHSNGNTYLDWYQQTPGKAPKLLIYKVSNRFSGVPSRFSGSGSGTDFTFTISSLQPEDIATYYCFQYSHVPWTFGQGTKLQITRTVAAPSVFIFPPSDEQLKSGTASVVCLLNNFYPREAKVQWKVDNALQSGNSQESVTEQDSKDSTYSLSSTLTLSKADYEKHKVYACEVTHQGLSSPVTKSFNRGEC
modifications: drug conjugate 22
- H292 tumor growth inhibition compared to PBS control group (H292 xenograft; FIG. 8): significantly inhibited
- complete tumor regression (tumor free mice) (H292 xenograft; FIG. 9): 4 out of 7
- tumor size/Weight compared to PBS Control group (H292 xenograft; FIG. 9): significantly reduced
- treatment-related body weight loss [1]: no significant

B2: Nimo-23: Nimo antibody conjugated with 23 (conjugate, chains of the INN, looked up)
heavy: B1 heavy
light: B1 light
modifications: drug conjugate 23
- body weight loss [2]: no body weight loss
- tumor volume compared to PBS Control group (HCC827 xenograft; single dose 3 mg/kg i.v., FIG. 11): significantly reduced
- tumor weight compared to PBS Control group (HCC827 xenograft; single dose 3 mg/kg i.v., FIG. 12): significantly reduced
- H292 tumor growth inhibition compared to PBS treated control group (HCC827 xenograft; single dose 3 mg/kg, FIGS. 11 and 12, text prints H292, Table 3 HCC827): significantly inhibited
